These results are taken from patent publication US11457625B1, “Tuning a broad acting antimicrobial textile to act as a narrow spectrum antimicrobial textile” (priority 2018, dated 2022).

The subject of this assay is Staphylococcus aureus 27217 or Staphylococcus aureus 25923. Put plainly: Determining kill vs binding (viability of bound cells in mannitol salts broth). Type of assay: cell-based. Conditions: NyCo swatch, 2.5 mg/ml peptide, no PHMB; 24 hr.

With “GGSGGSYSTCDFIM (STAPHYLOCOCCUS AUREUS) [Peptide]”, the “growth in mannitol salts broth (viability of bound cells)” value was “growth”.
